Chains of the proteins cited; added tags and fusions are not shown. Lines headed by an entry give the natural chain unless they say otherwise; changes in a name come on top.
UniProt Q14833: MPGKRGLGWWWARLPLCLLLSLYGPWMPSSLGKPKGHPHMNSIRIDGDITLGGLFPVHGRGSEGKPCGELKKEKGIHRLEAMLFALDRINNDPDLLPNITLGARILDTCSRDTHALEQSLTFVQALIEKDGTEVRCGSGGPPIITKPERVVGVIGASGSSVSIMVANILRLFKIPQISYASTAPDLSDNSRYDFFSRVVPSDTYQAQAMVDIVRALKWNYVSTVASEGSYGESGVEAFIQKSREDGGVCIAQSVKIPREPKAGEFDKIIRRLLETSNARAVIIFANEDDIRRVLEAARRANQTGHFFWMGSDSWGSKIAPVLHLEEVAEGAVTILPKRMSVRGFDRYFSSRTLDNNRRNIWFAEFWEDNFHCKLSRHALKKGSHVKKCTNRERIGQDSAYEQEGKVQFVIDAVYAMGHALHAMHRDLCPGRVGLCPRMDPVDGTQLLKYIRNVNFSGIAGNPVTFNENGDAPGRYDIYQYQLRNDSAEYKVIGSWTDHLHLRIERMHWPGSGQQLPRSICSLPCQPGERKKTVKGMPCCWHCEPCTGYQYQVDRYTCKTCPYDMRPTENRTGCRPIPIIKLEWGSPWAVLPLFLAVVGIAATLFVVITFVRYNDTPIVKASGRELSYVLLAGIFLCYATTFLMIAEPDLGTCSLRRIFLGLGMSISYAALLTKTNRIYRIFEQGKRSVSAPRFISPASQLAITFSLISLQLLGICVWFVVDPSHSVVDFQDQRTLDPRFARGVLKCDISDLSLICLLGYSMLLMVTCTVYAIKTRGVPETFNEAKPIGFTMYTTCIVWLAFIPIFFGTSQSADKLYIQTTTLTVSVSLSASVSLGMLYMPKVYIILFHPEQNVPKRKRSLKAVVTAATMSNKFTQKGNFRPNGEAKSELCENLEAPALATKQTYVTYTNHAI
UniProt Q13255: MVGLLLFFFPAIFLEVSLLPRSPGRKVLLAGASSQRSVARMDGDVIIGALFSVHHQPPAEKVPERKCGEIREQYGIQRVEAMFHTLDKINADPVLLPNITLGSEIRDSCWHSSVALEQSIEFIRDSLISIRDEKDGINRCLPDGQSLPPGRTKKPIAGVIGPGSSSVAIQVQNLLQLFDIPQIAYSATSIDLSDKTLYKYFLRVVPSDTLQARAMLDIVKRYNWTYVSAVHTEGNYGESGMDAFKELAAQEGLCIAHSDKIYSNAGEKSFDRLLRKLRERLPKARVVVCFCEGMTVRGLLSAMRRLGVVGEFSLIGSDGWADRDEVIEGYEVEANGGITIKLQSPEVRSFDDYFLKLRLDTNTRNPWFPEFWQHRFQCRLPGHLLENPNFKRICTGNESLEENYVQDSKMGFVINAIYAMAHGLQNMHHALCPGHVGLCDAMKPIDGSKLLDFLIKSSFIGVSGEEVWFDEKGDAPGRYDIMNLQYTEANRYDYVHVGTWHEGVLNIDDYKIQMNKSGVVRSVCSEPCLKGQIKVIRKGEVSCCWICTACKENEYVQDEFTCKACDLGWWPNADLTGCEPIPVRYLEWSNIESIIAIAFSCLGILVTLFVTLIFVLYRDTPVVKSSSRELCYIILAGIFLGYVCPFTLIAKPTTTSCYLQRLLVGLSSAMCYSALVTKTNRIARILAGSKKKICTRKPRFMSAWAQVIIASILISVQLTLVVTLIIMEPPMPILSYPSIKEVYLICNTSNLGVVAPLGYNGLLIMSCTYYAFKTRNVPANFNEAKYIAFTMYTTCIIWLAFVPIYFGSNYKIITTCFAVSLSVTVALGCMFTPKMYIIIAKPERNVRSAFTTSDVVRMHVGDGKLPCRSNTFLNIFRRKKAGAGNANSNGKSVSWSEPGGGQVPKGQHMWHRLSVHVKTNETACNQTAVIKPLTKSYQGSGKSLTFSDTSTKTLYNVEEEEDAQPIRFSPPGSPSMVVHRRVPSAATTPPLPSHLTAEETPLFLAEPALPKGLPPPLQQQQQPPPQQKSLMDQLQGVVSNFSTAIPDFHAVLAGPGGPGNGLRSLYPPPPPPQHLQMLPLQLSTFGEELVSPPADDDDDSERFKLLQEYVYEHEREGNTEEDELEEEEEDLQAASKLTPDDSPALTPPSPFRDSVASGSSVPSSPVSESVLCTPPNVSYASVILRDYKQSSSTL

In ChEMBL document CHEMBL1131214, “Synthesis and biology of the conformationally restricted ACPD analogue, 2-aminobicyclo[2.1.1]hexane-2,5-dicarboxylic acid-I, a potent mGluR agonist” (J Med Chem, 1998):

Legend:
[1] = molecular target: Metabotropic glutamate receptor 4 (Homo sapiens, UniProt Q14833); experiment: Compound was tested for the inhibition of Metabotropic glutamate receptor 4
Summary of the method: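 mGluR2 in CHO cells or mGluR4a in BHK cells. Preincubated 10 min at 37 °C in Locke's medium with 300 µM IBMX, then 10 min with 5 µM forskolin ± agonist. cAMP extracted with 0.1 M HCl and measured by RIA. Decrease in forskolin-induced cAMP given as % of the 1 mM glutamate maximum after basal subtraction. EC50 from logistic nonlinear regression.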

[2] = molecular target: Metabotropic glutamate receptor 1 (Homo sapiens, UniProt Q13255); experiment: Compound was tested for the inhibition of Metabotropic glutamate receptor 1

SMILES | EC50 [1] | EC50 [2]
N[C@@]1(C(=O)O)CC[C@@H](C(=O)O)C1 (racemic) | 800 µM | 15 µM
N[C@@]1(C(=O)O)CC[C@H](C(=O)O)C1 | 50 µM | > 300 µM
